Measurements as given in US12648945B2 (dated 2026).

Protein sequences, listed by entry. Tags and fused reporters are not part of them.
UniProt Q07817, whole entry: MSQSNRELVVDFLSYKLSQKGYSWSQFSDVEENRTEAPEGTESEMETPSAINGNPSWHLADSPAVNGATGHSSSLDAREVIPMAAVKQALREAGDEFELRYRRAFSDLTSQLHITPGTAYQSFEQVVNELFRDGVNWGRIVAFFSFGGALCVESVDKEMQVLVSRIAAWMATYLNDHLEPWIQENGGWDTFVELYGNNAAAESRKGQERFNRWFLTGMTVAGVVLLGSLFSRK
UniProt P10415, whole entry: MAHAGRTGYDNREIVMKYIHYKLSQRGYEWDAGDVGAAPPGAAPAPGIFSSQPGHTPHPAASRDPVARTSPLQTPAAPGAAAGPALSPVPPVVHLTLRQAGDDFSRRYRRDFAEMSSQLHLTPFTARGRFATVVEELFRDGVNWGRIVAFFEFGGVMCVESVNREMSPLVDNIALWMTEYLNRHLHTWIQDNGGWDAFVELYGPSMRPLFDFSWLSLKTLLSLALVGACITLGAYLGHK

Columns and labels:
[1] = molecular target: Bcl-XL (Homo sapiens, UniProt Q07817); assay: Fluorescence polarization competitive binding assay, Bcl-XL (Flu-BAK probe); settings: read-out: Inhibitory Activity IC50 Bcl-XL; FP competition, 10 nM protein, 2 nM Flu-BAK
[2] = molecular target: Bcl-2 (Homo sapiens, UniProt P10415)

Substance: 2-((1H-pyrrolo[2,3-b]pyridin-5-yl)oxy)-4-(1-((6- (4-chlorophenyl)-2-oxaspiro[3.5]non-6-en-7- yl)methyl)-1,2,3,6-tetrahydropyridin-4-yl)-N-((3- nitro-4-(((tetrahydro-2H-pyran-4- yl)methyl)amino)phenyl)sulfonyl)benzamide [Compound 10]
- IC50 [1]: 20.6 nM
- IC50 [2]: 1.9 nM
